Molecular target: GST-SOCS2/BC trimeric complex (GST-human SOCS2 residues 32-198 with Elongin B and Elongin C) (human, UniProt O14508 32-198; Q15370 1-118; Q15369 17-112)
Assay: SPR

Binder: PVPDYTSIHIV (phosphotyrosine at 595) [GHR pY595 competitor peptide (phosphopeptide derived from growth hormone receptor Tyr595)]
- IC50: 1.1 µM

Source: paper PMC9742514 (2022)
